Test results from US6953793B2 (priority 2000, dated 2005).

The chains behind the UniProt entries cited, without tags or fusion partners. Residues count along the entry.
UniProt P25774, 115-331: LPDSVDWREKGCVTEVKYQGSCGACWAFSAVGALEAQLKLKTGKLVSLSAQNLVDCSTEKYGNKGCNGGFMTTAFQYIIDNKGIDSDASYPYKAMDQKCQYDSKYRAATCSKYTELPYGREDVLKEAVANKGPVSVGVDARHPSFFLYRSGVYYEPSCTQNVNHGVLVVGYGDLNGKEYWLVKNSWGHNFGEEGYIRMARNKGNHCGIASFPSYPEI

Each compound was assayed against T1, Recombinant human cathepsin S (CatS) (Homo sapiens, UniProt P25774) (assay: biochemical). Settings: not given.
T1 construct: made in house; host or cells: baculovirus system (insect cells)

Row | Compound | IC50 [nM]
1 | CC(=O)N1CCc2c(c(-c3ccc(Cl)c(C)c3)nn2CC(O)CN2CCC(n3c(=O)n(CC(F)(F)F)c4ccccc43)CC2)C1 (centres unmarked) [Example 306, 1-(1-{3-[5-Acetyl-3-(4-chloro-3-methyl-phenyl)-4,5,6,7-tetrahydro-pyrazolo[4,3-c]pyridin-1-yl]-2-hydroxy-propyl}-piperidin-4-yl)-3-(2,2,2-trifluoro-ethyl)-1,3-dihydrobenzoimidazol-2-one] | 90
2 | CS(=O)(=O)N1CCc2c(c(-c3ccc(C(F)(F)F)cc3)nn2CC(O)CN2CCC(N3c4cc(Cl)ccc4NS3(=O)=O)CC2)C1 (centres unmarked) [Example 133, 1-[4-(6-Chloro-2,2-dioxo-2,3-dihydro-2λ^6-2,1,3-benzothiadiazol-1-yl)-piperidin-1-yl]-3-[5-methanesulfonyl-3-(4-trifluoromethyl-phenyl)-4,5,6,7-tetrahydro-pyrazolo[4,3-c]pyridin-1-yl]-propan-2-ol] | 150
3 | Cn1c(=O)n(C2CCN(CCCn3nc(-c4ccc(Br)cc4)c4c3CCN(C(N)=O)C4)CC2)c2cc(Cl)ccc21 [Example 359, 3-(4-Bromo-phenyl)-1-{3-[4-(6-chloro-3-methyl-2-oxo-2,3-dihydro-benzoimidazol-1-yl)-piperidin-1-yl]-propyl}-1,4,6,7-tetrahydro-pyrazolo[4,3-c]pyridine-5-carboxylic acid amide] | 40
4 | CC(=O)N1CCc2c(c(-c3ccc(Cl)cc3)nn2CC(O)CN2CCC(Nc3ccccc3F)CC2)C1 (centres unmarked) [Example 217, 1-(3-(4-Chloro-phenyl)-1-{3-[4-(2-fluoro-phenylamino)-piperidin-1-yl]-2-hydroxy-propyl}-1,4,6,7-tetrahydro-pyrazolo[4,3-c]pyridin-5-yl)-ethanone] | 830
5 | Cn1c(=O)n(C2CCN(CCCn3nc(-c4ccc(C(F)(F)F)cc4)c4c3CCN(S(C)(=O)=O)C4)CC2)c2ncccc21 [Example 329, 3-(1-{3-[5-Methanesulfonyl-3-(4-trifluoromethyl-phenyl)-4,5,6,7-tetrahydro-pyrazolo[4,3-c]pyridin-1-yl]-propyl}-piperidin-4-yl)-1-methyl-1,3-dihydro-imidazo[4,5-b]pyridin-2-one] | 80
6 | Cn1c(=O)n(C2CCN(C[C@@H](O)Cn3nc(-c4ccc(C(F)(F)F)cc4)c4c3CCN(S(C)(=O)=O)C4)CC2)c2ccccc21 [Example 383, (R)-1-(1-{2-Hydroxy-3-[5-methanesulfonyl-3-(4-trifluoromethyl-phenyl)-4,5,6,7-tetrahydro-pyrazolo[4,3-c]pyridin-1-yl]-propyl}-piperidin-4-yl)-3-methyl-1,3-dihydro-benzoimidazol-2-one] | 180
7 | CC(=O)N1CCc2c(c(-c3ccc(I)cc3)nn2CC(O)CN2CCC(n3c(=O)[nH]c4c(F)ccc(C#N)c43)CC2)C1 (centres unmarked) [Example 266, 3-(1-{3-[5-Acetyl-3-(4-iodo-phenyl)-4,5,6,7-tetrahydro-pyrazolo[4,3-c]pyridin-1-yl]-2-hydroxy-propyl}-piperidin-4-yl)-7-fluoro-2-oxo-2,3-dihydro-1H-benzoimidazole-4-carbonitrile] | 660
8 | CC(=O)N1CCc2c(c(-c3ccc(Cl)c(C)c3)nn2CC(O)CN2CCC(n3c(=O)n(CCN4C(=O)c5ccccc5C4=O)c4ccccc43)CC2)C1 (centres unmarked) [Example 296, 2-{2-[3-(1-{3-[5-Acetyl-3-(4-chloro-3-methyl-phenyl)-4,5,6,7-tetrahydro-pyrazolo[4,3-c]pyridin-1-yl]-2-hydroxy-propyl}-piperidin-4-yl)-2-oxo-2,3-dihydro-benzoimidazol-1-yl]-ethyl}-isoindole-1,3-dione] | 340
9 | Cn1c(=O)n(C2CCN(CCCn3nc(-c4ccc(C(F)(F)F)cc4)c4c3CCN(C(=O)c3c[nH]cn3)C4)CC2)c2ccccc21 [Example 331, 1-(1-{3-[5-(1H-Imidazole-4-carbonyl)-3-(4-trifluoromethyl-phenyl)-4,5,6,7-tetrahydro-pyrazolo[4,3-c]pyridin-1-yl]-propyl}-piperidin-4-yl)-3-methyl-1,3-dihydro-benzoimidazol-2-one] | 60
10 | CC(=O)N1CCc2c(c(-c3ccc(Cl)c(C)c3)nn2CC(O)CN2CCC(n3c(=O)n(CC(=O)O)c4ccccc43)CC2)C1 (centres unmarked) [Example 327, [3-(1-{3-[5-Acetyl-3-(4-chloro-3-methyl-phenyl)-4,5,6,7-tetrahydro-pyrazolo[4,3-c]pyridin-1-yl]-2-hydroxy-propyl}-piperidin-4-yl)-2-oxo-2,3-dihydro-benzoimidazol-1-yl]-acetic acid] | 520
11 | CC(=O)N1CCc2c(c(-c3ccc(Br)cc3)nn2CC(O)CN2CCC(n3c(=O)[nH]c4cc(C)ccc43)CC2)C1 (centres unmarked) [Example 273, 1-(1-{3-[5-Acetyl-3-(4-bromo-phenyl)-4,5,6,7-tetrahydro-pyrazolo[4,3-c]pyridin-1-yl]-2-hydroxy-propyl}-piperidin-4-yl)-5-methyl-1,3-dihydro-benzoimidazol-2-one] | 90
12 | CNC(=S)N1CCc2c(c(-c3ccc(C(F)(F)F)cc3)nn2CCCN2CCC(n3c(=O)n(C)c4ccccc43)CC2)C1 [Example 347, 1-{3-[4-(3-Methyl-2-oxo-2,3-dihydro-benzoimidazol-1-yl)-piperidin-1-yl]-propyl}-3-(4-trifluoromethyl-phenyl)-1,4,6,7-tetrahydro-pyrazolo[4,3-c]pyridine-5-carbothioic acid methylamide] | 480
13 | CS(=O)(=O)N1CCc2c(c(-c3ccc(C(F)(F)F)cc3)nn2CC(O)CN2CCC(n3c(=O)[nH]c4ccc(Cl)cc43)CC2)C1 (centres unmarked) [Example 325, 6-Chloro-1-(1-{2-hydroxy-3-[5-methanesulfonyl-3-(4-trifluoromethyl-phenyl)-4,5,6,7-tetrahydro-pyrazolo[4,3-c]pyridin-1-yl]-propyl}-piperidin-4-yl)-1,3-dihydro-benzoimidazol-2-one] | 90
14 | Cn1c(=O)n(C2CCN(CCCn3nc(-c4ccc(C(F)(F)F)cc4)c4c3CCN(C(=O)c3ccno3)C4)CC2)c2ccccc21 [Example 334, 1-(1-{3-[5-(Isoxazole-5-carbonyl)-3-(4-trifluoromethyl-phenyl)-4,5,6,7-tetrahydro-pyrazolo[4,3-c]pyridin-1-yl]-propyl}-piperidin-4-yl)-3-methyl-1,3-dihydro-benzoimidazol-2-one] | 80
15 | Cc1cc(C(=O)N2CCc3c(c(-c4ccc(C(F)(F)F)cc4)nn3CCCN3CCC(n4c(=O)n(C)c5ccccc54)CC3)C2)no1 [Example 336, 1-Methyl-3-(1-{3-[5-(5-methyl-isoxazole-3-carbonyl)-3-(4-trifluoromethyl-phenyl)-4,5,6,7-tetrahydro-pyrazolo[4,3-c]pyridin-1-yl]-propyl}-piperidin-4-yl)-1,3-dihydro-benzoimidazol-2-one] | 160
16 | CC(=O)N1CCc2c(c(-c3ccc(Cl)c(C)c3)nn2CC(O)CN2CCC(N3CCc4cc([N+](=O)[O-])ccc43)CC2)C1 (centres unmarked) [Example 174, 1-(3-(4-Chloro-3-methyl-phenyl)-1-{2-hydroxy-3-[4-(5-nitro-2,3-dihydro-indol-1-yl)-piperidin-1-yl]-propyl}-1,4,6,7-tetrahydro-pyrazolo[4,3-c]pyridin-5-yl)-ethanone] | 850

Same assay, conditions: pH 5; read-out: IC50

Row | Compound | IC50 [nM]
17 | 1-[1-{2-Hydroxy-3-[4-(5-methyl-benzooxazol-2-yl)-piperidin-1-yl]-propyl}-3-trifluoromethyl-phenyl)-1,4,6,7-tetrahydro-pyrazolo[4,3-c]pyridin-5-yl]-ethanone [Example 401] | 320
